# Data published in article PMC6589827 (Biochemistry, 2019).
# Tested on: reduced nicotinamide adenine dinucleotide phosphate
# Assay: purified protein, by the assay type
# Details: pH 7.0; 30.0 °C; varied: cofactor
substance,measurement,value
EcDHFR (Escherichia coli K-12),Km,5.2 µM
